Test [1] deals with Neuropeptide Y receptor type 1 (Homo sapiens, UniProt P25929). The test is described as follows: Tested for radioligand binding affinity against membranes from COS-7 cells transiently transfected with Neuropeptide Y receptor type 1. The format is cell membranes.
For test [2], the target named is T1, Neuropeptide Y receptor type 5 (Homo sapiens, UniProt Q15761).
T1 sequence (Q15761 whole entry): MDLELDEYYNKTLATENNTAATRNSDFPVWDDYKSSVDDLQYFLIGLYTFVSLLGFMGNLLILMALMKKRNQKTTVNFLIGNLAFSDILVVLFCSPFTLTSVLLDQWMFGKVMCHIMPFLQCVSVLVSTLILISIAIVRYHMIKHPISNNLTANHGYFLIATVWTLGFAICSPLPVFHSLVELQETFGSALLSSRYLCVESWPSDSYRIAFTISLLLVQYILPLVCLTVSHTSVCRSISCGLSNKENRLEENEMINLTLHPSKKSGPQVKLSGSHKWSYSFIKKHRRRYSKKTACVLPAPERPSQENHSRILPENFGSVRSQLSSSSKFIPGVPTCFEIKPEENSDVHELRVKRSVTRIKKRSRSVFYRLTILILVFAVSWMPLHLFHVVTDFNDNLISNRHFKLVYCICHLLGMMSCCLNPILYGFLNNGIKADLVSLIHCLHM
The test is described as follows: Tested for radioligand binding affinity against membranes from COS-7 cells transiently transfected with Neuropeptide Y receptor type 5. The format is cell membranes.

Chains of the proteins cited; added tags and fusions are not shown.
UniProt P25929, whole entry: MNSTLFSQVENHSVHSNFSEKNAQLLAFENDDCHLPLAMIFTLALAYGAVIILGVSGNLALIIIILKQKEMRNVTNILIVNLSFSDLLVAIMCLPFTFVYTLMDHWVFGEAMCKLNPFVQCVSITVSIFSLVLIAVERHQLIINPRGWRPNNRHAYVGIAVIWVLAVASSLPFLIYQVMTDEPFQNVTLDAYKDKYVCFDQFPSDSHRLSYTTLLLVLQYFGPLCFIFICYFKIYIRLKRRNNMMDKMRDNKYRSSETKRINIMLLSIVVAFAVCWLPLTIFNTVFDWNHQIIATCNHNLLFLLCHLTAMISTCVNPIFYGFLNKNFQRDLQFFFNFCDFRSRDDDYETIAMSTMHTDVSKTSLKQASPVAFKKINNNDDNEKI

As to `O=S(=O)(NC[C@H]1CC[C@H](CNC(CO)Cc2ccc(Cl)cc2)CC1)c1cccc2ccccc12` (some centres not stated), the Ki in test [1] was determined as 3240 nM; in test [2], 17 nM.

The values are drawn from ChEMBL document CHEMBL1135171, “Discovery of potent and selective small molecule NPY Y5 receptor antagonists” (Bioorg Med Chem Lett, 2002).
